Amino acid sequences for entries named in this document (tags omitted). A change or cut given only in a name is not applied to a line headed by its entry.
UniProt P28335: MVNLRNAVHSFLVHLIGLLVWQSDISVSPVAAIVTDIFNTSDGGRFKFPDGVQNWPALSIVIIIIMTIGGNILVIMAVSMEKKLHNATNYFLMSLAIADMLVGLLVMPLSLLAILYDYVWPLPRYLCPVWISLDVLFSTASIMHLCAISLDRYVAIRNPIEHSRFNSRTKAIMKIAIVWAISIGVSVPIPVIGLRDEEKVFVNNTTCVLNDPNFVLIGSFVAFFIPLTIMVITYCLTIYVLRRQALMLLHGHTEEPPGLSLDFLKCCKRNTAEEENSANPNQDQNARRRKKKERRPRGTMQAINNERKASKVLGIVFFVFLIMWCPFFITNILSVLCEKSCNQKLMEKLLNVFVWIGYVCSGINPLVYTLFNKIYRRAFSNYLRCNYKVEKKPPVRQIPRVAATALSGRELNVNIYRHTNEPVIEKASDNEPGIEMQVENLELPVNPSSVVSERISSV

In BindingDB's records for doi:10.1016/0166-4328(96)00087-3 (Smithkline Beecham Pharmaceuticals, 1996):

Target: 5-hydroxytryptamine receptor 2C (Homo sapiens, UniProt P28335)

- Ki: 1000 nM
SMILES: Cc1cc(NC(=O)Nc2ccc3c(ccn3C)c2)sn1 [CAS_3277600]
